Measured values as given in patent publication US11529340B2 (priority 2016, dated 2022).

How the values were obtained:
mice = settings: literature or earlier results; route as stated; cited from earlier work
[1] = tested on: SNI-induced allodynia in mice; assay: Spared nerve injury (SNI)-induced mechanical allodynia, electronic von Frey; settings: subcutaneous, 10-14 days after SNI surgery

Compound | impairment of rotarod performance / motor function (mice) | reversal of neuropathic allodynia [1]
C[C@]12N[C@H](Cc3ccccc31)c1ccccc12 [MK801] | significant reduction in the rotarod assay in nerve-injured mice | 
CN(C)C(=O)C(CCN1CCC(O)(c2ccc(Cl)cc2)CC1)(c1ccccc1)c1ccccc1 [loperamide] |  | transiently reversed the neuropathic allodynia in a dose-dependent manner
CN1CC[C@]23c4c5ccc(O)c4O[C@H]2c2[nH]c4ccccc4c2C[C@@]3(O)[C@H]1C5 [OMI (4), oxymorphindole] |  | transiently reversed the neuropathic allodynia in a dose-dependent manner
